This is an account of results in patent US20090215805A1, “4-Heteroaryl Pyrimidine Derivatives and use thereof as Protein Kinase Inhibitors” (Cyclacel Limited, priority 2005, published 2009).

Sequences of proteins named here, by UniProt entry; tags and fusion partners are left off. Residues count along the entry.
UniProt Q9VGF9, 1-411: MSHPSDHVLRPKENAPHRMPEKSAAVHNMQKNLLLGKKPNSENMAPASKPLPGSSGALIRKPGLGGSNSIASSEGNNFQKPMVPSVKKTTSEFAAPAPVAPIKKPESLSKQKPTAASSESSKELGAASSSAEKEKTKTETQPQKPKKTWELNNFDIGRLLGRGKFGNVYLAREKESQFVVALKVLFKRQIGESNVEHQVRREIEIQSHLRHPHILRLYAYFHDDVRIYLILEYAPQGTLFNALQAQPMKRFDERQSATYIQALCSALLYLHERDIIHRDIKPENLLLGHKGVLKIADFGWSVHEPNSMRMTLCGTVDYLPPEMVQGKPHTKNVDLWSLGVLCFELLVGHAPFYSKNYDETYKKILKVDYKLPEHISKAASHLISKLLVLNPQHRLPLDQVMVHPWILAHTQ

Bounds are passed on as bounds.

The term IC50 denotes the concentration that gives 50% inhibition. What is called Ki is the dissociation constant of the complex between target and ligand, obtained from inhibition or displacement.

The test concerns the target DM Aur A (Dm AK-A) (Drosophila melanogaster, UniProt Q9VGF9). The experiment in a line: Dm aurora A kinase assay (DM Aur A / Dm AK-A). The format is biochemical. The settings on record: for IC50: read-out: DM Aur A IC50, values without asterisk (DM aurora A); for Ki: read-out: Ki Dm AK-A, in vitro kinase assay. As for the experimental part:
The compounds of the invention above were investigated for their ability to inhibit the enzymatic activity of various protein kinases. This was achieved by measurement of incorporation of radioactive phosphate from ATP into appropriate polypeptide substrates. Recombinant protein kinases and kinase complexes were produced or obtained commercially. Assays were performed using 96-well plates and appropriate assay buffers (typically 25 mM β-glycerophosphate, 20 mM MOPS, 5 mM EGTA, 1 mM DTT, 1 mM […], pH 7.4), into which were added 2-4 μg of active enzyme with appropriate substrates. The reactions were initiated by addition of Mg/ATP mix (15 mM MgCl2+100 μM ATP with 30-50 kBq per well of [γ-^32P]-ATP) and mixtures incubated as required at 30° C. Reactions were stopped on ice, followed by filtration through p81 filterplates or GF/C filterplates (Whatman Polyfiltronics, Kent, UK). After washing 3 times with 75 mM aq orthophosphoric acid, plates were dried, scintillant added and incorporated radioactivity measured in a scintillation counter (TopCount, Packard Instruments, Pangbourne, Berks, UK). Compounds for kinase assay were made up as 10 mM stocks in DMSO and diluted into 10% DMSO in assay buffer. Data was analysed using curve-fitting software (GraphPad Prism version 3.00 for Windows, GraphPad Software, San Diego Calif. USA) to determine IC50 values (concentration of test compound which inhibits kinase activity by 50%).

Take `COCCOC(=O)c1[nH]c(C)c(-c2ccnc(Nc3ccc(N(C)C)cc3)n2)c1-c1ccccc1`: the IC50 was 777 nM and the Ki was determined as 303 nM.
On to `CCOC(=O)c1[nH]c(C)c(-c2ccnc(Nc3ccc(I)cc3)n2)c1-c1ccccc1`, for which the IC50 was at least 10000 nM and the Ki was over 10000 nM.
Take `CCOC(=O)c1[nH]c(C)c(-c2ccnc(Nc3ccc(O)cc3)n2)c1-c1ccccc1`: the IC50 was determined as 1210 nM and the Ki is 472 nM.
Taken in the same sequence, the figures for `Cc1[nH]cc(-c2ccccc2)c1-c1ccnc(Nc2ccc(N3CCOCC3)cc2)n1` were 1870 nM and 730 nM.
